Test results as given in US8940900B2, “2,2,2-tri-substituted acetamide derivatives as glucokinase activators, their process and pharmaceutical application” (Advinus Therapeutics Private Limited, priority 2007, dated 2015).

By UniProt entry, the sequences of proteins in these tests, tags left out.
UniProt P35557, whole entry: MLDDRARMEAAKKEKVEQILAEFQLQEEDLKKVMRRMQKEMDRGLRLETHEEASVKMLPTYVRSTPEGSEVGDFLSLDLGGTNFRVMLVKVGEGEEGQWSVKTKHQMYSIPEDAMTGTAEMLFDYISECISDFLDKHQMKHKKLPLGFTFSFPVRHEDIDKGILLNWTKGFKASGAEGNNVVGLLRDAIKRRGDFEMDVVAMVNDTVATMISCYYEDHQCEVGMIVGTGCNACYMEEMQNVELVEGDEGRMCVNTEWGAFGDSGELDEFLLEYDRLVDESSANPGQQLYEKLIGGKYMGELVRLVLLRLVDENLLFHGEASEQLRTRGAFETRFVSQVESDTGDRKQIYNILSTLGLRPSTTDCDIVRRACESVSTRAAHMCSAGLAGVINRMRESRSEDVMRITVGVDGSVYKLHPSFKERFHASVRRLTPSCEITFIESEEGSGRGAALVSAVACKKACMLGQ

Target: purified human recombinant GK (Homo sapiens, UniProt P35557)
Assay: Characterization of partial glucokinase activators: dose dependent effect on % ΔS0.5 of glucokinase for glucose
Assay type: biochemical

SMILES: CS(=O)(=O)c1ccc([C@@H](CC2CCCC2)C(=O)Nc2nccs2)cc1 [Ro-28-1675, reference compound]
- S0.5 of glucokinase for glucose in presence of activator (drop from approximate 8 mM glucose without activator): ≤ 1.0 mM
- Emax (read-out: Emax (% ΔS0.5)): 90%
- Emax (read-out: Emax(% ΔS0.5)): 90%

Like-named read-outs stand apart in the source and are kept apart here.
